Measured values: PMC6321117, “Sulfonamide Inhibition Studies of a New β-Carbonic Anhydrase from the Pathogenic Protozoan Entamoeba histolytica” (International Journal of Molecular Sciences, 2018)
“And” between values parts separate entries of the source, which are not always exact repeats. Identical values can stand only once. Like-named read-outs stand apart in the source and are kept apart here.

What was measured:
[1] = target: T1, EhiCA (β-carbonic anhydrase) (Entamoeba histolytica, UniProt C4LXK3); assay: biochemical; conditions: β class, stopped-flow CO2 hydrase assay, 3 different assays, errors 5–10%
T1 sequence (C4LXK3 1-188): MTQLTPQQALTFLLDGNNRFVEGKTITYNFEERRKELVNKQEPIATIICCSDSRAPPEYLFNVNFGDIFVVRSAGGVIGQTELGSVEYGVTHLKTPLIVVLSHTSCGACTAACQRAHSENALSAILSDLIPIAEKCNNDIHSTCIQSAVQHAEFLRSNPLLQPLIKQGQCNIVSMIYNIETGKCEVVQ

[2] = target: T1, EhiCA (β-carbonic anhydrase); conditions: read-out: KI EhiCA; β class, stopped-flow CO2 hydrase assay, 3 different assays, errors 5–10%

Ki [2] [nM] | SMILES | Ki [1]
– | NS(=O)(=O)c1ccc(S(=O)(=O)Nc2cccc3c(Cl)c[nH]c23)cc1 [IND, indisulam] | 822 nM
– | NS(=O)(=O)c1cc2c(cc1Cl)NCNS2(=O)=O [HCT, hydrochlorothiazide] | 3400 nM
285 | Nc1ccc(S(=O)(=O)NCCc2ccc(S(N)(=O)=O)cc2)cc1 [Compound 24] | –
– | NS(=O)(=O)c1ccc(CO)cc1 [Compound 16, 4-hydroxymethyl-benzenesulfonamide] | 36 to 89 nM and 89 nM
– | Cc1ccc(S(N)(=O)=O)cc1 [Compound 4] | 833 nM
– | NS(=O)(=O)c1cc(Cl)cc(Cl)c1O [Compound 10] | 4660 nM
– | Nc1ccc(S(=O)(=O)Nc2ccc(S(N)(=O)=O)cc2)cc1 [Compound 22] | 331 nM
– | Nc1ccc(S(N)(=O)=O)cc1Br [Compound 9] | > 10000 nM
– | NS(=O)(=O)c1ccc(CCNS(=O)(=O)c2ccc([N+](=O)[O-])cc2CO)cc1 [Compound 21] | 368 nM
